{
  "sequences": {"note": "The chains behind the UniProt entries cited, without tags or fusion partners. Where a name states a change or a piece, a line headed by the entry shows the natural chain unless it says otherwise.", "UniProt P41146": "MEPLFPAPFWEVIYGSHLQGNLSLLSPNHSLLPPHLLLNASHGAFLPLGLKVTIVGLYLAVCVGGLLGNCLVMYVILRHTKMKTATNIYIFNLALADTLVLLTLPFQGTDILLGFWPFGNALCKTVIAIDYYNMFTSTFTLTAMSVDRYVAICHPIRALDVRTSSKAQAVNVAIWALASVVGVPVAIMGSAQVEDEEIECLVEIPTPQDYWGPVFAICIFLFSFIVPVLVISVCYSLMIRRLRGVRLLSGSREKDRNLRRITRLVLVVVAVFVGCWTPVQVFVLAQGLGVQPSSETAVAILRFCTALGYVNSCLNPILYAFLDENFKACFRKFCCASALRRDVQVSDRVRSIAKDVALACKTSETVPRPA"},
  "source": "patent US8969358B2",
  "about": "“Buprenorphine analogs” (dated 2015)",
  "origin": "cited, not measured here",
  "biological_target": "ORL-1 (Homo sapiens (Human), UniProt P41146)",
  "conditions": "read-out: IC50 (at least partial agonist for ORL-1); Wnendt et al., Molec. Pharmacol. 1999",
  "data": [
    {"substance": "7-benzylidenenaltrexone", "values": [
      {"measurement": "IC50", "result": 10, "unit": "µM"}
    ]}
  ]
}
